The values that follow come from PubChem BioAssay AID1671193 (National Center for Advancing Translational Sciences (NCATS), 2021).

This is a selection; strong and weak results do not stand in their true shares. Inconclusive results are not listed. Some salts or complexes appear as unconnected parts, following the source record. Active and inactive are the calls of the source. The call rests on the fitted dose curve; in most records, active means well fitted cell-killing curve with a large enough effect; inconclusive means small, poorly fitted or top-dose-only effect, or effect the other way; inactive means flat fitted curve, though single readings scatter.

The assay can be described thus: GF-AFC viability counterscreen for inhibitors of alpha-synuclein gene (SNCA) expression. Further: nearly all actives have a fitted effect of over 30% in size. As to conditions: HEK-293-SNCA-luc viability, GF-AFC fluorescence, 24 h; at 57.1 µM (top of the series) unless noted. An excerpt: Assay Submitter (PI): Daniel R. Scoles Ph.D.
Department of Neurology, University of Utah, Salt Lake City, Utah
Accumulation of alpha-synuclein is a main underlying pathological feature of Parkinson's disease (PD) and alpha-synucleinopathies, for which lowering expression of the alpha-synuclein gene (SNCA) is a potential therapeutic avenue. Using a cell-based luciferase reporter of SNCA expression we performed a quantitative high throughput screen (qHTS) of 155,885 compounds in dose response. The screening assay was generated using genome editing to insert the luciferase gene downstream and in frame of the SNCA gene in HEK-293 cells (1). A viability counterscreen using GF-AFC was used to eliminate cytotoxic and false positive compounds. After in silico analysis (clustering, removal of frequent hitter nuisance chemotypes), inhibitor compounds from the primary screen were selected for follow up and re-tested at 11-doses in the SNCA-luc cells (luciferase and GF-AFC confirmation), and in CMV-luc expressing cell line to flag general transcriptional repressors.
Described herein are the results of the GF-AFC viability counterscreen for SNCA inhibitors; inactivity (no decrease in fluorescence signal, not cytotoxic) is the desired output for this assay.
1. Dansithong, W., Paul, S., Scoles, D. R., Pulst, S. M., and Huynh, D. P. (2015) Generation of SNCA Cell Models Using Zinc Finger Nuclease (ZFN) Technology for Efficient High-Throughput Drug Screening. PLoS ONE 10, e0136930.
SEQUENCE No. (e.g., 1, 2, 3, etc.); […] (e.g., Cells, Incubation, Reagent, etc.); VALUE; DESCRIPTION
1; Cells; 4 uL; Dispense 1500 HEK-293-SNCA-luc cells/well into Greiner 1536-well white / solid bottom tissue culture treated plate. The plate was covered with metal lids with gas-exchange holes.
2; Incubate; 24 hours; Incubate at 37C, 5% CO2, 95% RH.
3; Compounds; 23 nL; Compounds and controls were transferred via a Kalypsys Pin Tool (Wako USA) equipped with a 1536-slotted pin array. The plate was covered with metal lids with gas-exchange holes.
4; Incubate; 24 hours; Incubate at 37C, 5% CO2, 95% RH.
5; Dispense; 1 uL; Dispense Gly-Phe-7-amino-4-trifluoromethylcoumarin (GF-AFC, prepared at 125 uM in PBS) was added. The plate was covered with metal lids with gas-exchange holes.
6; Incubate; 30 min; Incubate at 37C, 5% CO2.
7; Detector; Fluorescence; Measure fluorescence with ViewLux microplate reader (PerkinElmer) equipped with 405/10 excitation and 540/25 emission filters.
8; Dispense; 3 uL; Dispense ONE-Glo ([…]) lucifase detection reagent was added to each well. Plates were covered with metal lids with gas-exchange holes.
9; Incubate; 15 min; Incubate at room temperature.
10; Detector; Luminescence; Measure luminescence with ViewLux microplate reader (PerkinElmer) equipped with clear filters.
NOTES (numbers refer to sequence above)
1; HEK-293-SNCA-luc were cultured and suspended in phenol-red free DMEM (4.5 g/L glucose, 25 mM HEPES, cat #21063 (Thermo)).
3; Compounds were added to the assay plate in an 11-point intra plate dose response, 1:3 titration in DMSO with a final concentration range of […]. Vehicle-only plates, with DMSO being pin-transferred to every well, were inserted at the beginning of screening runs to confirm expected assay performance. Activity was normalized to wells containing medium only (-100% activity, full inhibition) and SNCA-luc cells treated with DMSO vehicle control (0% activity), contained on the same plate as test samples.
10; Signals were analyzed, and dose-response curves were fit using the Hill equation. Compounds in curve classes -1.1, -1.2, -2.1, -2.2 in the SNCA-luc assay were considered active. Compounds were eliminated from further consideration if also active (curve class -1.1, -1.2, -1.3, -1.4, -2.1, -2.2, -2.3, -2.4) in the GF-AFC cytotoxicity assay.
In general terms: Counterscreens check selectivity or assay interference.
As to `C/C1=C2N=C(/C=C3N=C(/C(C)=C4\[N-][C@@](C)([C@@H]5N=C1[C@](C)(CCC(=O)NC[C@@H](C)OP(=O)([O-])O[C@H]1[C@@H](O)[C@@H](n6cnc7cc(C)c(C)cc76)O[C@@H]1CO)[C@H]5CC(N)=O)[C@@](C)(CC(N)=O)[C@@H]4CCC(N)=O)[C@@](C)(CC(N)=O)[C@@H]\3CCC(N)=O)C(C)(C)[C@@H]/2CCC(N)=O.[C-]#N.[Co+3]`, the activity change, negative = cytotoxicity was inactive: -26.4% [at 23.9 µM].
For `CCOP(=O)(CC)Oc1ccc([N+](=O)[O-])cc1` (stereo unspecified) the value was inactive: -20.3%; for `Cc1cccc([N+](=O)[O-])c1[N+](=O)[O-]`, inactive: -19.4%.
The figure for `OCCSCCO` is inactive: -18.4% [at 23.9 µM]; for `C/C1=C2N=C(/C=C3N=C(/C(C)=C4\N=C(C(CC(N)=O)C4(C)CCC(=O)NCC(C)OP(=O)([O-])OC4C(CO)OC(n5cnc6cc(C)c(C)cc65)C4O)C4(C)N=C1C(CCC(N)=O)C4(C)CC(N)=O)C(CCC(N)=O)C\3(C)C)C(CCC(N)=O)C/2(C)CC(N)=O.[C-]#N.[Co]` (stereo unspecified) it is inactive: -25.4% [at 23.9 µM].
The figure for `O=[N+]([O-])c1cccc([N+](=O)[O-])c1` is inactive: -35.9%.
